The nature of the test: Compound was evaluated for kinetic constant Kcat/Km.

Each structure is given as a SMILES string.

In the case of `NCCCC(=O)O`, the k cat/Km is 20.4 m M-1 min-1.

(Values after ChEMBL document CHEMBL1132473, “Inhibition and substrate activity of conformationally rigid vigabatrin analogues with gamma-aminobutyric acid aminotransferase” (J Med Chem, 1999).)
